Values quoted from earlier work as cited in US5618809A, “Indolocarbazoles from saccharothrix aerocolonigenes copiosa subsp. nov SCC 1951 ATCC 53856” (Schering Corporation, priority 1995, dated 1997).

Key:
[1] = cited from earlier work
[2] = test system: yeast and fungi; settings: cited from earlier work
[3] = in vivo; cited from earlier work

**Q.** Which “antitumor activity in-vivo (in words)” value [1] does the source give for `CN[C@@H]1C[C@H]2O[C@@](C)([C@@H]1OC)n1c3ccccc3c3c4c(c5c6ccccc6n2c5c31)C(=O)NC4` [Staurosporine, staurosporine] here?
**A.** antitumor activity in-vivo

**Q.** And the “antibiotic activity in yeast and fungi (in words)” value [2]?
**A.** antibiotic activity in yeast and fungi

**Q.** And the “effect on hypertension, edema and ulcers (in words)” value [3]?
**A.** therapeutic effect on hypertension, edema and ulcers
